The values below are quoted from earlier work in patent US10604696B2, “Process for acidizing” (Cleansorb Limited, priority 2014, dated 2020).

The conditions of this series: in water; cited from earlier work.

In the case of calcium gluconate, the Solubility entry was “about 3.5 % by weight”.
